Here are results for two compounds from US8530490B2, “Uracil compound or salt thereof having human deoxyuridine triphosphatase inhibitory activity” (Taiho Pharmaceutical Co., Ltd., priority 2008, dated 2013).

Chains of the proteins cited; added tags and fusions are not shown. Residues count along the entry.
UniProt P33316, 94-252: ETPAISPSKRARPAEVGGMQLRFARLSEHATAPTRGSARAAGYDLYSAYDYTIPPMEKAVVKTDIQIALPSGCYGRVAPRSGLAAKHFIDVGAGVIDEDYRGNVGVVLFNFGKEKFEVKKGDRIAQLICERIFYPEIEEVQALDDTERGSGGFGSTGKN

Where two headings read alike, the source gives them in different places.

For the assay, the target named is human dUTPase (Homo sapiens (Human), UniProt P33316). Put plainly: Human dUTPase inhibitory effect: production of [5-3H]dUMP from [5-3H]dUTP, measured by HPLC with flow scintillation. It counts as biochemical. Here is the method: The inhibitory activity of the compound of the present invention against human dUTPase was determined by measuring the production of [5-^3H]deoxyuridine monophosphate (hereinafter, referred to as [5-^3H]dUMP) from [5-^3H]deoxyuridine triphosphate (hereinafter, referred to as [5-^3H]dUTP) according to a method shown below.
Specifically, 0.2 mL in total of a solution containing 0.02 mL of 1 μM dUTP (including 588 Bq/mL [5-3H]dUTP), 0.05 mL of a 0.2 M Tris buffer solution (pH 7.4), 0.05 mL of 16 mM magnesium chloride, 0.02 mL of 20 mM 2-mercaptoethanol, 0.02 mL of a 1% aqueous solution of fetal bovine serum-derived albumin, 0.02 mL of varying concentrations of test compound solutions or pure water as a control, and 0.02 mL of a solution of human dUTPase (expressed using E. coli and purified) was reacted at 37° C. for 15 minutes. Immediately after the reaction, the solution was heated at 100° C. for 1 minute to terminate the reaction, followed by centrifugation at 15000 rpm for 2 minutes. An aliquot (150 μL) of the supernatant thus obtained by centrifugation was analyzed using an Atlantis dC18 column (manufactured by Waters Corp., 4.6×250 mm) and a high-performance liquid chromatograph (manufactured by Shimadzu Corp., Prominence). […]
The inhibitory activity of the test compound was determined according to the formula shown below.

In general, IC50 refers to the concentration needed to halve the response being measured. In the case of `CC(C)(COCCCn1ccc(=O)[nH]c1=O)NS(=O)(=O)c1cccc(OCC2CC2)c1` [Example 175, 3-(cyclopropylmethoxy)-N-(1-(3-(2,4-dioxo-3,4-dihydropyrimidin-1(2H)-yl)propoxy)-2-methylpropan-2-yl)benzenesulfonamide], the 50% inhibitory concentration (IC50) (human dUTPase, [5-3H]dUMP production from [5-3H]dUTP, 37° C., 15 minutes, read-out: IC50) turned out to be 330 nM.
`CC(C)(CC/C=C/Cn1ccc(=O)[nH]c1=O)NS(=O)(=O)c1cccc(OCC2CC2)c1` [Example 173, (E)-3-(cyclopropylmethoxy)-N-(7-(2,4-dioxo-3,4-dihydropyrimidin-1(2H)-yl)-2-methylhept-5-en-2-yl)benzenesulfonamide] registered a half-inhibitory concentration (IC50) of 40 nM.
